# Screening data (PubChem)
# GLP1R inv ag: GLP-1 receptor (human) inverse agonism; HEK293 GLP-1R CRE-luciferase, luminescence, 24 h; GLP-1R form is constitutively active; 410,000 compounds, 1.6% hits; Potency, µM (series often up to 38.3 µM), without a hit: top-dose activity change, negative = inhibition, most hits filed as inhibitors; note: potency is the fitted concentration of half-maximal effect; % is set by controls: 0 for no effect and ±100 for the full control effect; nearly all actives have a fitted effect of over 55% in size
#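 HEK293 cells stably co-expressing a cAMP-responsive luciferase reporter and constitutively active GLP-1R were seeded, incubated 12 h, then exposed to compounds for 24 h at 37 C. Luminescence was read 12 min after detection reagent; inverse agonists lower signal.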
# miR-21 FLuc: miR-21 reporter, rising signal. HeLa miR-21 FLuc reporter, luciferase, 48 h. Potency, µM (titrated, usually from 38.3 µM), without a hit: at the top dose reporter change, positive = more light. 340,000 tested, under 10 active. AID 2288; active = well fitted rising curve with a large enough effect; inconclusive = small, poorly fitted or top-dose-only effect; inactive = no such curve, though single readings can be large or run the other way;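 also: % of control where 0% means no effect; miR-21 action dims this reporter so a rising signal means less miR-21 action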
#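 HeLa cells endogenously expressing miR-21, stably carrying CMV-driven firefly luciferase with a downstream miR-21 binding site, 2000 cells/well. Titrations up to approximately 40 uM, 48 hours; luciferase luminescence read.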
# GLP-1R agonist: agonists of human GLP-1 receptor; P43220; HEK293 GLP-1R CRE-luciferase, luminescence, 4-6 h; cells express a hypersensitive GLP-1R form; Potency, µM (doses to about 45.6 µM), without a hit: at the top dose activation, most hits filed as activators; 380,000 compounds, 0.007% hits; AID 624172; note: potency is the fitted concentration of half-maximal effect; % of control where 0% means no effect
# PTHR1 ag: activates the human parathyroid hormone receptor PTHR1 | Q03431 | HEK293 GP2 PTHR1 cells, GloSensor cAMP luminescence, 1 h | Potency, µM (doses to about 115 µM), for the others: at the highest dose activation, hits mostly activators | 410,000 compounds, 0.075% hits; note: potency is the fitted concentration of half-maximal effect; nearly all actives have a fitted effect of over 55% in size
#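 HEK-293-derived GP2 cells expressing PTHR1 and a GloSensor cAMP reporter, 3,000/well, plated overnight, given luciferin plus IBMX (each 0.5 mM as added) for 1 h at 37 °C, then compound for 1 h at 37 °C. Luminescence was read after 15 min at room temperature.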
# HEK293 tox: cytotoxicity counter-screen for GLP-1 receptor inverse agonists | HEK293 cAMP-luciferase reporter cells, luminescence, 24 h | Potency, µM (top dose mostly 38.3 µM), inactives show top-dose activity change, negative = inhibition, actives largely listed as inhibitors | 410,000 compounds, 0.13% hits;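 note: loss of luciferase light is scored as toxicity; potency is the fitted concentration of half-maximal effect; % is set by controls: 0 for no effect and ±100 for the full control effect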
#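 A 23 nL compound transfer followed 12 hours of cell culture at 37 deg C; exposure then lasted 24 hr. Luciferase assay detection reagent was dispensed and plates read for luminescence after a 12 min room-temperature wait.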
# Pin1 inhibitor: inhibitors of human Pin1; Q13526; Pin1 FP peptide displacement, HiFluor488, 10 min; Potency, µM (doses to about 115 µM), for inactives: at the highest dose activity, negative = inhibition, usual class: inhibitors; 390,000 compounds, 0.009% hits; AID 504891; active = well fitted inhibition curve with a large enough effect in the polarisation, with a control signal flat, not every such curve was filed as active; inconclusive = small, poorly fitted or top-dose-only effect, or effect the other way, or a change in a side signal; inactive = no such curve, though single readings can be large or run the other way; the % refers to the polarisation; note: potency is the fitted concentration of half-maximal effect; % is set by controls: 0 for no effect and ±100 for the full control effect
# * hit, by the source's call; i = inactive; ? = inconclusive; nt = no result given; [ ] = remark or other dose. In the library only some 1.7% were active in any assay of this set; here they are far more common. Unless noted, calls come from the whole dose curve; as a rule, active = well fitted curve in the direction sought with a large enough effect; inconclusive = small, poorly fitted or top-dose-only effect, or another doubt; inactive = no such curve, though single readings can be large; an effect the other way counts as inactive or inconclusive.
# Abbreviations: A = GLP1R inv ag; B = miR-21 FLuc; C = GLP-1R agonist; D = PTHR1 ag; E = HEK293 tox; F = Pin1 inhibitor
(1) Cc1cc(C)c(S(C)(=O)=O)c(Oc2cccc(Cl)c2)n1
  A: 4.8%	B: -5.4%	C: 0.1%	D: i	E: -3.2%	F: 0.8%
(2) Cc1ccc(S(=O)(=O)c2c(C)cc(C)nc2Oc2cccc(C(F)(F)F)c2)cc1
  A: 5.01µM*	B: -4.4%	C: -10.4%	D: -52.1%[57.5 µM]	E: 4.4%	F: 4.6%
(3) Cc1cc(C)c(S(C)(=O)=O)c(Oc2ccc(C(C)(C)C)cc2)n1
  A: 11.2µM*	B: 4.7%	C: 4.3%	D: -28.4%	E: 9.3%	F: -3.4%
(4) CC(=O)c1cc2c(s1)c1cnn(Cc3ccccc3F)c(=O)c1n2C
  A: nt	B: nt	C: nt	D: nt	E: nt	F: -3.7%
(5) O=C1CC[C@H](C(=O)N[C@@H]2C[C@H]2c2ccccc2)N1
  A: nt	B: nt	C: -1.9%	D: nt	E: nt	F: nt
(6) O=C(NCCc1ccccc1)c1cnc2sc(N3CCCCC3)nn2c1=O
  A: 2.1%	B: -13.2%	C: nt	D: -41.5%	E: 1.7%	F: 17.2%
(7) COc1ccc(Cl)cc1NC(=O)NCC1CCN(Cc2cc(C)ccc2C)CC1
  A: ?	B: 22.3%	C: -7.9%	D: -24.6%	E: ?	F: 6.0%
(8) COc1cc([N+](=O)[O-])ccc1NC(=O)NCC1CCN(Cc2ccc(Cl)cc2)CC1
  A: 10µM*	B: 10.4%	C: 0.9%	D: -80.5%	E: ?	F: 1.0%
(9) CN(Cc1ccco1)C(=O)c1ccc2c(c1)N(Cc1ccccc1F)C(=O)c1ccccc1S2
  A: ?	B: -1.8%	C: nt	D: i	E: 1.8%	F: 18.3%
(10) C/C(=N\NC(=S)NCc1ccccc1)c1ccc2c(c1)OCCO2
  A: 10µM*	B: -11.3%	C: ?	D: -27.7%	E: ?	F: 10.5%
(11) C/C(=N\NC(=S)NCc1ccccc1)c1cccs1
  A: ?	B: -42.1%	C: 19.0%	D: 0.9%	E: 3.55µM*	F: -1.0%
(12) C/C(=N\NC(=S)NCc1ccccc1)c1ccc(Br)cc1
  A: ?	B: -9.3%	C: 25.8%	D: i	E: ?	F: 6.4%
(13) Clc1ccc(Nc2nc(NCc3ccco3)nc3nccnc23)cc1
  A: nt	B: nt	C: nt	D: nt	E: nt	F: -1.9%
(14) CCCc1nc2ccccc2c(=O)n1/N=C/c1ccccc1O
  A: 4.47µM*	B: 0.2%	C: 8.1%	D: -7.6%	E: -3.8%	F: 2.6%
(15) Cc1nc2ccccc2c(=O)n1/N=C/c1ccc(O)cc1O
  A: 45.8%	B: -4.6%	C: -9.3%	D: -24.7%	E: 0.4%	F: 0.8%
(16) Cc1ccccc1OCc1nc2ccccc2c(=O)n1/N=C/c1c[nH]c2ccccc12
  A: ?	B: -14.3%	C: 1.3%	D: -25.3%	E: ?	F: 15.3%
(17) Cc1cccc(C)c1OCc1nc2ccccc2c(=O)n1/N=C/c1c[nH]c2ccccc12
  A: 2.82µM*	B: 16.8%	C: -0.2%	D: -23.7%	E: -23.4%	F: 13.1%
(18) COc1ccc(C2/C=C\CN(C(=O)c3ccc(C)cc3)[C@H](Cc3ccccc3)C(=O)N2Cc2ccc(F)cc2)cc1 (stereo not given in full)
  A: 10µM*	B: ?	C: -0.4%	D: -37.5%	E: -7.8%	F: 11.4%
(19) CCOc1ccc(CCNC(=O)CN2C(=O)COc3ccc(S(=O)(=O)N4CCC(C)CC4)cc32)cc1
  A: 2.3%	B: 7.7%	C: -5.4%	D: -20.5%	E: 0.7%	F: -7.2%
(20) C#C[C@]1(O)CC[C@H]2[C@@H]3CCC4=CCCC[C@@H]4[C@H]3C(=C)C[C@@]21CC
  A: nt	B: nt	C: -0.1%	D: nt	E: nt	F: nt
(21) Cc1nc(-c2ccc(NC(=O)c3ccco3)cc2)cs1
  A: 1µM*	B: 26.3%	C: -5.6%	D: -93.9%	E: 23.7%	F: 3.2%
(22) Nc1nc(-c2ccc(NC(=O)c3ccco3)cc2)cs1
  A: 7.94µM*	B: -0.3%	C: 5.4%	D: -26.9%	E: -4.5%	F: 8.8%
(23) CC[C@@]1(c2ccccc2)NC(=O)N(C)C1=O
  A: nt	B: nt	C: -1.5%	D: nt	E: nt	F: nt
(24) O=C(c1cc([N+](=O)[O-])ccc1N1CCCCC1)N1CCc2ccccc21
  A: 2µM*	B: 16.2%	C: 7.5%	D: -26.1%	E: ?	F: -4.4%
(25) Cc1ccc(S(=O)(=O)N(Cc2ccccc2)c2ccccc2C(=O)N2CCCCC2)cc1
  A: 8.91µM*	B: 21.3%	C: 8.3%	D: i	E: ?	F: -0.4%
(26) Oc1ccc(-c2nc3ccccc3nc2-c2ccccc2)cc1
  A: 3.98µM*	B: 15.3%	C: 24.2%	D: -94.5%	E: -29.7%	F: 1.2%
(27) Cc1ccc2occ(CC(=O)Nc3ccc(Cl)c(C(F)(F)F)c3)c2c1
  A: ?	B: ?	C: nt	D: -48.9%	E: -29.1%	F: 14.2%
(28) O=C(NCCc1ccccc1F)c1ccc2c(c1)OCCO2
  A: 0.891µM*	B: ?	C: -3.0%	D: -32.5%	E: 15.3%	F: -5.2%

# Grouped by structure, the entries above with an NH in an aromatic ring (two)
# Abbreviations: A = GLP1R inv ag; B = miR-21 FLuc; C = GLP-1R agonist; D = PTHR1 ag; E = HEK293 tox; F = Pin1 inhibitor
(16) Cc1ccccc1OCc1nc2ccccc2c(=O)n1/N=C/c1c[nH]c2ccccc12
  A: ?	B: -14.3%	C: 1.3%	D: -25.3%	E: ?	F: 15.3%
(17) Cc1cccc(C)c1OCc1nc2ccccc2c(=O)n1/N=C/c1c[nH]c2ccccc12
  A: 2.82µM*	B: 16.8%	C: -0.2%	D: -23.7%	E: -23.4%	F: 13.1%
